# Molecular target: Mitogen-activated protein kinase 14 (Homo sapiens) (UniProt Q16539)
# The chains behind the UniProt entries cited, without tags or fusion partners.
# UniProt Q16539, whole entry: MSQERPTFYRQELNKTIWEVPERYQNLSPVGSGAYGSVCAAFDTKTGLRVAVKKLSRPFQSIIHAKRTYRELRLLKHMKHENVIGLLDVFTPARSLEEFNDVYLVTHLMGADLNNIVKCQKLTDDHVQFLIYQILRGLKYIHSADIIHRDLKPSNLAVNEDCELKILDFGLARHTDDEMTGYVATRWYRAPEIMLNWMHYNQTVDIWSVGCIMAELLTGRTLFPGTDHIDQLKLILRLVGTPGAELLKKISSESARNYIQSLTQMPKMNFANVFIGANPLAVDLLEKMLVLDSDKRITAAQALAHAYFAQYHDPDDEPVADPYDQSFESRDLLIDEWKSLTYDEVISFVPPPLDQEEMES
# Experiment: Potency index, ratio of SB203580 IC50 to compound IC50 for p38alpha MAPK (unknown origin)
compound,measurement,value
COc1c2ccoc2cc2oc(C)c(-c3cc(-c4ccc(F)cc4)c(C#N)c(=N)[nH]3)c(=O)c12,Ratio IC50,2.6

# — ChEMBL document CHEMBL4011601, “Synthesis and molecular docking studies of new furochromone derivatives as p38α MAPK inhibitors targeting human breast cancer MCF-7 cells” (Bioorg Med Chem, 2017)
